T1: t-gp68 (truncated gp68 ectodomain, soluble) (HCMV AD169)
T1 chain: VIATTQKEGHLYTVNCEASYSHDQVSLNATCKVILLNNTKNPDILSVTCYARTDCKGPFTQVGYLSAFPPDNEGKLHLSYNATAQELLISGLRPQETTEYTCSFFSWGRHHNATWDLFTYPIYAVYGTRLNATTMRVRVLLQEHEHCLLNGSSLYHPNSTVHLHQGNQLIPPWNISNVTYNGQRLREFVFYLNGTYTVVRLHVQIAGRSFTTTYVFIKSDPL

B1: SM5–1 human IgG1 antibody with Fc variant R255Q (antibody, V domains shown)
VH: QVQLVQSGAEVRKPGASVKVSCKASGYSLKDHYMVWVRQAPGQGLEWMGWINPQSGGTGYGQKFQGRVTMTRDTSTNTAYMILSSLRSDDTAVYFCARDGAKTVSNSGLSLLYYHNRLDAWGQGTMVTVSS
VL: QSVLTQPPSVSAAPGQMVTISCSGSSSNIGKNYVSWYQQLPGAAPKLLIFDNNKRPSGTPDRFSGSKSGTSATLVITGLQTGDEADYYCGTPDRSLSVIFGGGTKVTVL
notes: SM5-1 VH, as the heavy chain of m25 (the ELISA methods name hu4D5 Fab arms instead); human IgG1 heavy-chain constant region (CH1, hinge, CH2, CH3); EU number minus 117 is the position in P01857; SM5-1 VL, as the light chain of m25 (the ELISA methods name hu4D5 Fab arms instead); human kappa constant domain; IgG1; source: ExpiCHO, purified (Protein A)
B2: SM5–1 human IgG1 antibody with wild-type Fc (antibody, V domains shown)
VH: B1 VH
VL: B1 VL
notes: also called SM5–1 WT; human SM5–1; source: ExpiCHO, purified (Protein A)

Key:
[1] = molecular target: T1, t-gp68 (truncated gp68 ectodomain, …); assay: ELISA; antibody coated at 4 μg/mL; FLAG-labeled t-gp68, gp34-M, CD16A-GST or FcRn-GST diluted 5-fold from 450 nM in 5% milk PBST; anti-FLAG-M2-HRP; settings: both partners purified
[2] = molecular target: T1, t-gp68 (truncated gp68 ectodomain, …); assay: flow cytometry on cells; soluble t-gp68 (2 μM) and/or gp34-M (0.1 μM) with 67 nM antibody in solution, read as loss of antibody staining of AD169-infected MRC5 cells on ice; settings: both partners purified

Binder	binding result [1]	binding result [2]
B1	binds	
B2		binds
